ChEMBL document CHEMBL2384988, “Discovery of 2-{3-[2-(1-isopropyl-3-methyl-1H-1,2-4-triazol-5-yl)-5,6-dihydrobenzo[f]imidazo[1,2-d][1,4]oxazepin-9-yl]-1H-pyrazol-1-yl}-2-methylpropanamide (GDC-0032): a β-sparing phosphoinositide 3-kinase inhibitor with high unbound exposure and robust in vivo antitumor activity” (J Med Chem, 2013)

Protein sequences, listed by entry. Tags and fused reporters are not part of them. Lines headed by an entry give the natural chain unless they say otherwise; changes in a name come on top.
UniProt Q8NEB9, whole entry: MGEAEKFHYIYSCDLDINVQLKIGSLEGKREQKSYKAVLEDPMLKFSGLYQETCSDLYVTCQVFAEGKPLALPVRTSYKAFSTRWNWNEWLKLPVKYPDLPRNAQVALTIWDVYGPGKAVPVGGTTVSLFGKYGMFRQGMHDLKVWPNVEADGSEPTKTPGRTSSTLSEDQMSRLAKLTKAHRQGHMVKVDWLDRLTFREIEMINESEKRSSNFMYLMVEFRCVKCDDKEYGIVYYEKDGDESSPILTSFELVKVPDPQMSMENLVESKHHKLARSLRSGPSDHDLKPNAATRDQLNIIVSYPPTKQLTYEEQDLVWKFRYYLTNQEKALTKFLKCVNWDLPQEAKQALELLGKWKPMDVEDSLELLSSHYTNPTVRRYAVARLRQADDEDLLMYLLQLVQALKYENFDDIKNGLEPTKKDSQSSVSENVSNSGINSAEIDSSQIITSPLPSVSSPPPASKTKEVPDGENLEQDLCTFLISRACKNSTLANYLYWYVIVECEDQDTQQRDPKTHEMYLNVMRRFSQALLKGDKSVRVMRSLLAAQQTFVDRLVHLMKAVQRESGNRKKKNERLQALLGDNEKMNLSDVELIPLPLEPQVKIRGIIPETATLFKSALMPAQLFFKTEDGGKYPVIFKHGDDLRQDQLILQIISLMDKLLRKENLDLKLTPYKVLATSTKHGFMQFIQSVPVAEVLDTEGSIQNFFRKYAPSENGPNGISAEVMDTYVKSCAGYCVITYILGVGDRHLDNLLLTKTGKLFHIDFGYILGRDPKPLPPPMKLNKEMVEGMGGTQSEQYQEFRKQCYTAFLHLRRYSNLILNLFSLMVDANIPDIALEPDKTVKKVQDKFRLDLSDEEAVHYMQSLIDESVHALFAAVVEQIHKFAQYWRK
UniProt O00750: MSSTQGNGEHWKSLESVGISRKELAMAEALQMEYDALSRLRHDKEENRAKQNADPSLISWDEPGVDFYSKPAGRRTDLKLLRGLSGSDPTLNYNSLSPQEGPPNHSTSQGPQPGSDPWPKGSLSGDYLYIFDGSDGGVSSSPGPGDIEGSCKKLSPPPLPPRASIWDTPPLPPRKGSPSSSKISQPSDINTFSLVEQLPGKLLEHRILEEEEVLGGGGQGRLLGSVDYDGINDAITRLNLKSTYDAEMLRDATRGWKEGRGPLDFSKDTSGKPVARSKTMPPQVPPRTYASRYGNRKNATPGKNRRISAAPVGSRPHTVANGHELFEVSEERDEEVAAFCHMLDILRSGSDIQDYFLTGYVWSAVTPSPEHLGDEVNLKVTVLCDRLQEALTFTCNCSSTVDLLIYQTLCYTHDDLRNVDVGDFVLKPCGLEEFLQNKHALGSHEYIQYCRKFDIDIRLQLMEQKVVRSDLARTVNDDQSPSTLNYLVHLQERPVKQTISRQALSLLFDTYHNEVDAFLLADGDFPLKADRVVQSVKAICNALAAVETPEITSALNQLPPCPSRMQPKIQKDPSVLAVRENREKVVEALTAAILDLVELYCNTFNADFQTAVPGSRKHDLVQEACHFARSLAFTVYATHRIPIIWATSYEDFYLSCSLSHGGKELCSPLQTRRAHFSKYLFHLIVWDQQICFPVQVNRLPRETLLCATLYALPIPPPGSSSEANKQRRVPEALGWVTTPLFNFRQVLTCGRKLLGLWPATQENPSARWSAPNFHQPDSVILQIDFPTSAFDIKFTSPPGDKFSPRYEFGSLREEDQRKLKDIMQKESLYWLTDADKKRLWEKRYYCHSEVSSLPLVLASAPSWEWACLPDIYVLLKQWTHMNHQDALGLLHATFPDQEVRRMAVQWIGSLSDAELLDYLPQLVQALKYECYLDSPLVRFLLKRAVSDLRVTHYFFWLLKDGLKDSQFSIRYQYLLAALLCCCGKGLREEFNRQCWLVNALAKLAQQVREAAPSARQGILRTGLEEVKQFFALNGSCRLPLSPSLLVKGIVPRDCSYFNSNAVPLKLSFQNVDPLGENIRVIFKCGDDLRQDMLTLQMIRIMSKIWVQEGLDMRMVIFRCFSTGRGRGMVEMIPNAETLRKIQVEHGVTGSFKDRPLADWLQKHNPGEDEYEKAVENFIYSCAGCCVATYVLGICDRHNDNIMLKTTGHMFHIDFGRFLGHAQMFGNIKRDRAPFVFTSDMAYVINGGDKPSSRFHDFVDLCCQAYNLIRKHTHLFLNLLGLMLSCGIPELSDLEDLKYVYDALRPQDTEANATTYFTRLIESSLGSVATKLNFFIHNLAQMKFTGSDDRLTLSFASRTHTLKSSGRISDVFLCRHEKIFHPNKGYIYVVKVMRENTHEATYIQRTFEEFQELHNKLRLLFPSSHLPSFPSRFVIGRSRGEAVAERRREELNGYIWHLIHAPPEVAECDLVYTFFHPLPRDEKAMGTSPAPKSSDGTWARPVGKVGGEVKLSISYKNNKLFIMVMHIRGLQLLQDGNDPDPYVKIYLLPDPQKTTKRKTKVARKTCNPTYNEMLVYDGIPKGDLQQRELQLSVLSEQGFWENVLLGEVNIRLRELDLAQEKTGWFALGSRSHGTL
UniProt P48736: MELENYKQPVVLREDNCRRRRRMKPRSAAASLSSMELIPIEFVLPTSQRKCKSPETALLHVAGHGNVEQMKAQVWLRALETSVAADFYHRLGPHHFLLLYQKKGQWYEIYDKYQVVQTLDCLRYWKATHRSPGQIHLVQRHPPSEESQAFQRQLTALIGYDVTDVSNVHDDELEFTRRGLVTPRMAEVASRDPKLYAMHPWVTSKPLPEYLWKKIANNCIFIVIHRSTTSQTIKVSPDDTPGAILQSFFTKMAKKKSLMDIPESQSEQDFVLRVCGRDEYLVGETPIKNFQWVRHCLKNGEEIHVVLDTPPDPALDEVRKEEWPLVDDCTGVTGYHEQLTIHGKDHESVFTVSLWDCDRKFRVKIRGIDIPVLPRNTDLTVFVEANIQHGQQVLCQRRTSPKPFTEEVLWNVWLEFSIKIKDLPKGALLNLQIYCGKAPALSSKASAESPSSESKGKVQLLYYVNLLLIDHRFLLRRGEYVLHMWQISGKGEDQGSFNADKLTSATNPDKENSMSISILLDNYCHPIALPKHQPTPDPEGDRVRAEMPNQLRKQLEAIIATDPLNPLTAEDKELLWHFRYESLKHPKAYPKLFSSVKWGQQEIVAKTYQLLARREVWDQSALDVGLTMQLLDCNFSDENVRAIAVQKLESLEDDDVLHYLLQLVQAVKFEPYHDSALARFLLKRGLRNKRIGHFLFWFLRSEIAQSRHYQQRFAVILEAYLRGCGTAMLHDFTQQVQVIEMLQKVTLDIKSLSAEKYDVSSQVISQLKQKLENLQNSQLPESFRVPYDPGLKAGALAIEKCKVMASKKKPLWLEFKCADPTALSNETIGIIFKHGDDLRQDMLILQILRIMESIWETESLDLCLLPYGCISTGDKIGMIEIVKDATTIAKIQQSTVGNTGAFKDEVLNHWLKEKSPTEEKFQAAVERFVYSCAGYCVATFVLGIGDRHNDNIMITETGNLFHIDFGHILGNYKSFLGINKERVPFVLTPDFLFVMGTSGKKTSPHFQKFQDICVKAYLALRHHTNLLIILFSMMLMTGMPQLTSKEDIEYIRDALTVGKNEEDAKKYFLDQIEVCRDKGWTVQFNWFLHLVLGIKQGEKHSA
UniProt P42336, whole entry: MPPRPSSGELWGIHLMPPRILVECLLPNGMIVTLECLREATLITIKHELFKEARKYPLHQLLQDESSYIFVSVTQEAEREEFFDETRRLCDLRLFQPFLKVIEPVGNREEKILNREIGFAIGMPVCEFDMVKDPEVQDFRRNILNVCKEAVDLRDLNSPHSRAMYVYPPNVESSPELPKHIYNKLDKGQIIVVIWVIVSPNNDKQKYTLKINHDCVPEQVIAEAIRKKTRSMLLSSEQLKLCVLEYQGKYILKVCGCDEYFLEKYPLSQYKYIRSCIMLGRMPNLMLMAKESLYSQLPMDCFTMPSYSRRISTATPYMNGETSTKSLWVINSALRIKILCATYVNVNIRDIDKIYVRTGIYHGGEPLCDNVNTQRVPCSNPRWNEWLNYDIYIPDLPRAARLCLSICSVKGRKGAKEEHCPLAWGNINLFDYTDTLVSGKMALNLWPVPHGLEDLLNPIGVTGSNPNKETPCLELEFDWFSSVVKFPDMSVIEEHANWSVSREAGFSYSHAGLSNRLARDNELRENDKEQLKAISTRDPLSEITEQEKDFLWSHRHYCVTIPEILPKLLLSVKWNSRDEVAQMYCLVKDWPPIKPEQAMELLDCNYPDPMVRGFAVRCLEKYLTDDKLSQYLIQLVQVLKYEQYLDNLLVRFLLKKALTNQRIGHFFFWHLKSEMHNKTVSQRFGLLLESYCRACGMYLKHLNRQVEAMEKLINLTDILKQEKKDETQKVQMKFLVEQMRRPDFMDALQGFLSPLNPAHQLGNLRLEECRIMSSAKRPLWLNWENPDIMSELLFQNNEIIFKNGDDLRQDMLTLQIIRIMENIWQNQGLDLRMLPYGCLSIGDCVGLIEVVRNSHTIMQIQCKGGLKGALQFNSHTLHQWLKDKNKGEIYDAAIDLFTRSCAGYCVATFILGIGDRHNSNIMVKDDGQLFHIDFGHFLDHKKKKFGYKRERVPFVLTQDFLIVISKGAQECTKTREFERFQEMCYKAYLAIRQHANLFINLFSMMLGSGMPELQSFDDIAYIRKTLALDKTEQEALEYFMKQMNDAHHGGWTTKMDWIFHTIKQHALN

Experiments:
[1] = biological target: Phosphatidylinositol 3-kinase catalytic subunit type 3 (Homo sapiens, UniProt Q8NEB9); assay: Inhibition of human VPS34 at 1 uM
[2] = biological target: Phosphatidylinositol 4-phosphate 3-kinase C2 domain-containing subunit beta (Homo sapiens, UniProt O00750); assay: Inhibition of PI3KC2beta (unknown origin) at 1 uM
[3] = biological target: Phosphatidylinositol 4,5-bisphosphate 3-kinase catalytic subunit gamma isoform (Homo sapiens) (UniProt P48736); assay: Inhibition of PI3Kgamma (unknown origin) at 1 uM
[4] = biological target: T1, Phosphatidylinositol 4,5-bisphosphate 3-kinase catalytic subunit alpha isoform (Homo sapiens, UniProt P42336)
[5] = biological target: T1, Phosphatidylinositol 4,5-bisphosphate 3-kinase catalytic subunit alpha isoform; remark: listed apart in the source

inhibition [1]: 69.9% | inhibition [2]: 80.4% | inhibition [3]: 90.6% | IC50 [4]: 4 nM | IC50 [5]: 31 nM
SMILES: Cc1nc(-c2cn3c(n2)-c2ccc(-c4cnn(C(C)(C)C(N)=O)c4)cc2OCC3)n(C(C)C)n1 [TASELISIB]
